Like-named read-outs stand apart in the source and are kept apart here.
Test system: National Cancer Institute 60 cancer cell line panel
[1] = NCI-H322M (Non-Small Cell Lung)

**Q.** With `CC(=O)OC1C(=O)C2(C)C(O)CC3OCC3(OC(C)=O)C2C(OC(=O)c2ccccc2)C2(O)CC(OC(=O)C(O)C(NC(=O)c3ccccc3)c3ccccc3)C(C)=C1C2(C)C.[Cu+2]` (centres unmarked) [Cu-Taxol] as the compound, how does the “Copper(II)-Taxol/Taxol ratio” value (NCI-H23 (Non-Small Cell Lung)) read?
**A.** 0.8709

**Q.** And the logGI50 (NCI-H23 (Non-Small Cell Lung))?
**A.** −8 Molar

**Q.** What about the CuTax/FeTax ratio (NCI-H226 (Non- Small Lung Cancer)) of the same compound?
**A.** 15.85

**Q.** And the “Copper(II)-Taxol/Taxol ratio” value (NCI-H226 (Non-Small Cell Lung))?
**A.** 12.302

**Q.** What about the logGI50 (NCI-H226 (Non-Small Cell Lung)) of the same compound?
**A.** −4.92 Molar

**Q.** And the CuTax/FeTax ratio (NCI-H322M (Non- Small Lung Cancer))?
**A.** 0.0302

**Q.** What about the “Copper(II)-Taxol/Taxol ratio” value [1] of the same compound?
**A.** 1

**Q.** And the logGI50 [1]?
**A.** −8 Molar

**Q.** What about the CuTax/FeTax ratio (NCI-H460 (Non- Small Lung Cancer)) of the same compound?
**A.** 0.1995

**Q.** And the “Copper(II)-Taxol/Taxol ratio” value (NCI-H460 (Non-Small Cell Lung))?
**A.** 1

**Q.** And the logGI50 (NCI-H460 (Non-Small Cell Lung))?
**A.** −8 Molar

**Q.** And the CuTax/FeTax ratio (NCI-H522 (Non- Small Lung Cancer))?
**A.** 0.257

**Q.** What about the “Copper(II)-Taxol/Taxol ratio” value (NCI-H522 (Non-Small Cell Lung)) of the same compound?
**A.** 1

**Q.** What about the logGI50 (NCI-H522 (Non-Small Cell Lung)) of the same compound?
**A.** −8 Molar

**Q.** What about the “Copper(II)-Taxol/Taxol ratio” value (NCI/ADR-RES (Ovarian)) of the same compound?
**A.** 0.7244

**Q.** And the CuTax/FeTax ratio (NCI/ADR-RES (Ovarian))?
**A.** 0.07244

**Q.** What about the logGI50 (NCI/ADR-RES (Ovarian)) of the same compound?
**A.** −5.86 Molar

**Q.** What about the “Copper(II)-Taxol/Taxol ratio” value (OVCAR-3 (Ovarian)) of the same compound?
**A.** 0.7079

**Q.** What about the CuTax/FeTax ratio (OVCAR-3 (Ovarian)) of the same compound?
**A.** 0.2291

**Q.** And the logGI50 (OVCAR-3 (Ovarian))?
**A.** −8 Molar

**Q.** And the “Copper(II)-Taxol/Taxol ratio” value (OVCAR-4 (Ovarian))?
**A.** 0.0067

**Q.** And the CuTax/FeTax ratio (OVCAR-4 (Ovarian))?
**A.** 0.0138

**Q.** And the logGI50 (OVCAR-4 (Ovarian))?
**A.** −8 Molar

**Q.** And the “Copper(II)-Taxol/Taxol ratio” value (OVCAR-5 (Ovarian))?
**A.** 0.6607

**Q.** What about the CuTax/FeTax ratio (OVCAR-5 (Ovarian)) of the same compound?
**A.** 0.01148

**Q.** What about the logGI50 (OVCAR-5 (Ovarian)) of the same compound?
**A.** −8 Molar

**Q.** And the “Copper(II)-Taxol/Taxol ratio” value (OVCAR-8 (Ovarian))?
**A.** 1

**Q.** And the CuTax/FeTax ratio (OVCAR-8 (Ovarian))?
**A.** 0.138

**Q.** And the logGI50 (OVCAR-8 (Ovarian))?
**A.** −8 Molar

**Q.** And the “Copper(II)-Taxol/Taxol ratio” value (RPMI-8226 (Leukemia))?
**A.** 1

**Q.** And the CuTax/FeTax ratio (RPMI-8226 (Leukemia))?
**A.** 0.1349

**Q.** And the logGI50 (RPMI-8226 (Leukemia))?
**A.** −8 Molar

**Q.** And the “Copper(II)-Taxol/Taxol ratio” value (RXF393 (Renal))?
**A.** 1

**Q.** And the CuTax/FeTax ratio (RXF393 (Renal))?
**A.** 0.1047

**Q.** And the logGI50 (RXF393 (Renal))?
**A.** −8 Molar

**Q.** And the “Copper(II)-Taxol/Taxol ratio” value (SF-268 (CNS))?
**A.** 0.912

**Q.** What about the CuTax/FeTax ratio (SF-268 (CNS)) of the same compound?
**A.** 0.06026

**Q.** And the logGI50 (SF-268 (CNS))?
**A.** −8 Molar

**Q.** And the “Copper(II)-Taxol/Taxol ratio” value (SF-295 (CNS))?
**A.** 0.6760

**Q.** And the CuTax/FeTax ratio (SF-295 (CNS))?
**A.** 0.1202

**Q.** And the logGI50 (SF-295 (CNS))?
**A.** −8 Molar

**Q.** What about the “Copper(II)-Taxol/Taxol ratio” value (SF-539 (CNS)) of the same compound?
**A.** 1

**Q.** And the CuTax/FeTax ratio (SF-539 (CNS))?
**A.** 0.1905

**Q.** What about the logGI50 (SF-539 (CNS)) of the same compound?
**A.** −8 Molar

**Q.** And the “Copper(II)-Taxol/Taxol ratio” value (SK-MEL-5 (Melanoma))?
**A.** 1

**Q.** What about the CuTax/FeTax ratio (SK-MEL-5 (Melanoma)) of the same compound?
**A.** 0.1479

**Q.** What about the logGI50 (SK-MEL-5 (Melanoma)) of the same compound?
**A.** −8 Molar

**Q.** And the “Copper(II)-Taxol/Taxol ratio” value (SK-MEL-28 (Melanoma))?
**A.** 0.01148

**Q.** And the CuTax/FeTax ratio (SK-MEL-28 (Melanoma))?
**A.** 0.0007586

**Q.** What about the logGI50 (SK-MEL-28 (Melanoma)) of the same compound?
**A.** −8 Molar

**Q.** And the “Copper(II)-Taxol/Taxol ratio” value (SK-OV-3 (Ovarian))?
**A.** 0.8912

**Q.** What about the CuTax/FeTax ratio (SK-OV-3 (Ovarian)) of the same compound?
**A.** 0.07079

**Q.** What about the logGI50 (SK-OV-3 (Ovarian)) of the same compound?
**A.** −8 Molar

**Q.** What about the “Copper(II)-Taxol/Taxol ratio” value (SN12C (Renal)) of the same compound?
**A.** 0.1585

**Q.** What about the CuTax/FeTax ratio (SN12C (Renal)) of the same compound?
**A.** 0.04571

**Q.** What about the logGI50 (SN12C (Renal)) of the same compound?
**A.** −8 Molar

**Q.** And the “Copper(II)-Taxol/Taxol ratio” value (SNB-19 (CNS))?
**A.** 0.8709

**Q.** And the CuTax/FeTax ratio (SNB-19 (CNS))?
**A.** 0.01862

**Q.** And the logGI50 (SNB-19 (CNS))?
**A.** −8 Molar

**Q.** And the “Copper(II)-Taxol/Taxol ratio” value (SNB-75 (CNS))?
**A.** 1

**Q.** And the CuTax/FeTax ratio (SNB-75 (CNS))?
**A.** 0.4365

**Q.** What about the logGI50 (SNB-75 (CNS)) of the same compound?
**A.** −8 Molar

**Q.** What about the “Copper(II)-Taxol/Taxol ratio” value (SR (Leukemia)) of the same compound?
**A.** 0.3162

**Q.** And the CuTax/FeTax ratio (SR (Leukemia))?
**A.** 0.05012

**Q.** What about the logGI50 (SR (Leukemia)) of the same compound?
**A.** −8 Molar

**Q.** And the “Copper(II)-Taxol/Taxol ratio” value (SW-620 (Colon))?
**A.** 1

**Q.** And the CuTax/FeTax ratio (SW-620 (Colon))?
**A.** 0.1514

**Q.** What about the logGI50 (SW-620 (Colon)) of the same compound?
**A.** −8 Molar

**Q.** And the “Copper(II)-Taxol/Taxol ratio” value (TK-10 (Renal))?
**A.** 0.3467

**Q.** What about the CuTax/FeTax ratio (TK-10 (Renal)) of the same compound?
**A.** 0.04898

**Q.** What about the logGI50 (TK-10 (Renal)) of the same compound?
**A.** −7.49 Molar

**Q.** What about the “Copper(II)-Taxol/Taxol ratio” value (U251 (CNS)) of the same compound?
**A.** 1

**Q.** What about the CuTax/FeTax ratio (U251 (CNS)) of the same compound?
**A.** 0.1549

**Q.** What about the logGI50 (U251 (CNS)) of the same compound?
**A.** −8 Molar

**Q.** What about the “Copper(II)-Taxol/Taxol ratio” value (UACC-62 (Melanoma)) of the same compound?
**A.** 0.7413

**Q.** And the CuTax/FeTax ratio (UACC-62 (Melanoma))?
**A.** 0.1148

**Q.** What about the logGI50 (UACC-62 (Melanoma)) of the same compound?
**A.** −8 Molar

**Q.** What about the “Copper(II)-Taxol/Taxol ratio” value (UACC-257 (Melanoma)) of the same compound?
**A.** 0.04365

**Q.** What about the CuTax/FeTax ratio (UACC-257 (Melanoma)) of the same compound?
**A.** 0.0005495

**Q.** What about the logGI50 (UACC-257 (Melanoma)) of the same compound?
**A.** −8 Molar

**Q.** What about the “Copper(II)-Taxol/Taxol ratio” value (UO-31 (Renal)) of the same compound?
**A.** 0.6026

**Q.** And the CuTax/FeTax ratio (UO-31 (Renal))?
**A.** 0.04571

**Q.** And the logGI50 (UO-31 (Renal))?
**A.** −6.65 Molar
